Assay results from publication PMC6201588, “Molecular cloning and characterization of vanillin dehydrogenase from Streptomyces sp. NL15-2K” (BMC Microbiology, 2018).

Test system: O=Cc1ccccc1O
Test: purified protein
Details: co-substrate NAD+ (0.5 mM in standard assay), 30 °C, pH 9.5

VDH (vanillin dehydrogenase) from Streptomyces sp. NL15-2K (Streptomyces sp. NL15-2K; S2A)
Km: 566 ± 81.5 µM | kcat: 14.9 s⁻¹ | kcat/Km: 26000 M⁻¹ s⁻¹
